Laboratory results as given in patent US20090099157A1, “TETRAHYDRO-PYRAZOLO-PYRIDINE THIOETHER MODULATORS OF CATHEPSIN S” (priority 2007, published 2009).

By UniProt entry, the sequences of proteins in these tests, tags left out. Residues count along the entry.
UniProt P25774, 115-331: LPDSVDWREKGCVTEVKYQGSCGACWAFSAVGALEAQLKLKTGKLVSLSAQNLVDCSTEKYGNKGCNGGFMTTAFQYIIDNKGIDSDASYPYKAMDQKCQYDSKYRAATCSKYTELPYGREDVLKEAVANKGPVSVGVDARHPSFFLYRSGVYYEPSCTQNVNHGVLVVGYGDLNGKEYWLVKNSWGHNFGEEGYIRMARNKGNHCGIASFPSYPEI

Target: Recombinant human cathepsin S (CatS) (Homo sapiens, UniProt P25774)
Test: biochemical

In order of rising IC50:
1. CS(=O)(=O)N1CCc2c(c(-c3ccc(C(F)(F)F)c(SCCN4CCCC(CO)C4)c3)nn2CC(O)CN2CCN(c3ccccc3)CC2)C1 (stereo not drawn) [Example 773, 1-{3-[3-({2-[3-(Hydroxymethyl)piperidin-1-yl]ethyl}sulfanyl)-4-(trifluoromethyl)phenyl]-5-(methylsulfonyl)-4,5,6,7-tetrahydro-1H-pyrazolo[4,3-c]pyridin-1-yl}-3-(4-phenylpiperazin-1-yl)propan-2-ol]  65 nM
2. CS(=O)(=O)N1CCc2c(c(-c3ccc(C(F)(F)F)c(SCCN4CCCCC4)c3)nn2CC(O)CN2CCC(C(=O)N3CCOCC3)CC2)C1 (stereo not drawn) [Example 811, 1-[5-(Methylsulfonyl)-3-{3-[(2-piperidin-1-ylethyl)sulfanyl]-4-(trifluoromethyl)phenyl}-4,5,6,7-tetrahydro-1H-pyrazolo[4,3-c]pyridin-1-yl]-3-[4-(morpholin-4-ylcarbonyl)piperidin-1-yl]propan-2-ol]  150 nM
3. CC1CCN(C[C@@H](O)Cn2nc(-c3ccc(C(F)(F)F)c(SCCN4CCC(F)CC4)c3)c3c2CCN(S(C)(=O)=O)C3)CC1 [Example 200, (2R)-1-{3-[3-{[2-(4-Fluoropiperidin-1-yl)ethyl]sulfanyl}-4-(trifluoromethyl)phenyl]-5-(methylsulfonyl)-4,5,6,7-tetrahydro-1H-pyrazolo[4,3-c]pyridin-1-yl}-3-(4-methylpiperidin-1-yl)propan-2-ol]  180 nM
4. CS(=O)(=O)N1CCc2c(c(-c3ccc(C(F)(F)F)c(SCCN4CCC(F)CC4)c3)nn2CC(O)CN2CCCC(O)C2)C1 (stereo not drawn) [Example 486, 1-(3-{3-[3-{[2-(4-Fluoropiperidin-1-yl)ethyl]sulfanyl}-4-(trifluoromethyl)phenyl]-5-(methylsulfonyl)-4,5,6,7-tetrahydro-1H-pyrazolo[4,3-c]pyridin-1-yl}-2-hydroxypropyl)piperidin-3-ol]  290 nM
5. CSCC(=O)N1CCc2c(c(-c3ccc(C(F)(F)F)c(SCCN4CCC(F)CC4)c3)nn2C[C@@H](O)CN2CCCCC2)C1 [Example 441, (2S)-1-{3-[3-{[2-(4-Fluoropiperidin-1-yl)ethyl]sulfanyl}-4-(trifluoromethyl)phenyl]-5-[(methylsulfanyl)acetyl]-4,5,6,7-tetrahydro-1H-pyrazolo[4,3-c]pyridin-1-yl}-3-piperidin-1-ylpropan-2-ol]  310 nM
6. CS(=O)(=O)N1CCc2c(c(-c3ccc(C(F)(F)F)c(SCCN4CCCCC4)c3)nn2CC(O)CN2CCC(O)C2)C1 (stereo not drawn) [Example 349, 1-{2-Hydroxy-3-[5-(methylsulfonyl)-3-{3-[(2-piperidin-1-ylethyl)sulfanyl]-4-(trifluoromethyl)phenyl}-4,5,6,7-tetrahydro-1H-pyrazolo[4,3-c]pyridin-1-yl]propyl}pyrrolidin-3-ol]  520 nM
7. CS(=O)(=O)N1CCc2c(c(-c3ccc(Cl)c(SCCCCl)c3)nn2CCCN2CCOCC2)C1 [Example 139, 3-[4-Chloro-3-(3-chloro-propylsulfanyl)-phenyl]-5-methanesulfonyl-1-(3-morpholin-4-yl-propyl)-4,5,6,7-tetrahydro-1H-pyrazolo[4,3-c]pyridine]  630 nM
8. CC(C)(O)C1CCN(CCSc2cc(-c3nn(C[C@@H](O)CN4CCCCC4)c4c3CN(S(C)(=O)=O)CC4)ccc2C(F)(F)F)CC1 [Example 602, (2S)-1-{3-[3-({2-[4-(1-Hydroxy-1-methylethyl)piperidin-1-yl]ethyl}sulfanyl)-4-(trifluoromethyl)phenyl]-5-(methylsulfonyl)-4,5,6,7-tetrahydro-1H-pyrazolo[4,3-c]pyridin-1-yl}-3-piperidin-1-ylpropan-2-ol]  900 nM
9. CC(=O)N1CCN(CCSc2cc(-c3nn(CC(O)CN4CCN(C5CC5)CC4)c4c3CN(S(C)(=O)=O)CC4)ccc2C(F)(F)F)CC1 (stereo not drawn) [Example 682, 1-{3-[3-{[2-(4-Acetylpiperazin-1-yl)ethyl]sulfanyl}-4-(trifluoromethyl)phenyl]-5-(methylsulfonyl)-4,5,6,7-tetrahydro-1H-pyrazolo[4,3-c]pyridin-1-yl}-3-(4-cyclopropylpiperazin-1-yl)propan-2-ol]  1030 nM
